Test results taken from ChEMBL document CHEMBL4364301 (Eur J Med Chem, 2019).

Assays:
Format in all cases: functional
VCaP = test: Antiproliferative activity against human VCaP cells assessed as reduction in cell growth incubated for 96 hrs by propidium iodide based 2D monolayer assay
How it was run: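 VCaP cells in RPMI 1640 with 10% FCS at 37 °C, 5% CO2, seeded 4,000–20,000 cells/well and left 24 h before dosing. Compounds from DMSO stocks were diluted in half-log steps in medium, 10 concentrations 0.0032–100 μM, triplicate wells, max 0.3% DMSO. After 96 h, cells were washed, stained with 7 μg/ml propidium iodide plus 0.1% Triton X-100 for 1–2 h at room temperature, and fluorescence read at ex 530/em 620 nm.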

DU-145 = test: Antiproliferative activity against human DU145 cells assessed as reduction in cell growth incubated for 96 hrs by propidium iodide based 2D monolayer assay
How it was run: (§1)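 After 24 h recovery, compound in medium or medium alone (control wells) was added at 10 half-log concentrations from 0.0032 to 100 µM, in triplicate, with at most 0.3% DMSO. After 96 h, wells were PBS-washed, stained with 7 µg/ml PI and 0.1% Triton X-100, and fluorescence read at 530/620 nm. IC50 came from a 4-parameter fit, geometric mean.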

CWR22R = test: Antiproliferative activity against human 22Rv1 cells assessed as reduction in cell growth incubated for 96 hrs by propidium iodide based 2D monolayer assay; how it was run: as §1
LNCaP = test: Antiproliferative activity against human LNCAP cells assessed as reduction in cell growth incubated for 96 hrs by propidium iodide based 2D monolayer assay; how it was run: as §1

Measured: Activity

CC1(C)C(=O)N(c2ccc(C#N)cc2C(F)(F)F)C(=S)N1c1cccc(S(F)(F)(F)(F)F)c1
active: VCaP Dose-dependent effect | DU-145 = Dose-dependent effect | CWR22R Dose-dependent effect | LNCaP Dose-dependent effect

CC1(C)C(=O)N(c2cccc(S(F)(F)(F)(F)F)c2)C(=S)N1c1ccc(C(F)(F)F)cc1
active: VCaP Dose-dependent effect | DU-145 = Dose-dependent effect | CWR22R Dose-dependent effect | LNCaP Dose-dependent effect

CC1(C)C(=O)N(c2ccc([N+](=O)[O-])c(C(F)(F)F)c2)C(=S)N1c1cccc(S(F)(F)(F)(F)F)c1
active: VCaP Dose-dependent effect | DU-145 = Dose-dependent effect | CWR22R Dose-dependent effect | LNCaP Dose-dependent effect

CC1(C)C(=O)N(c2ccc([N+](=O)[O-])c(C(F)(F)F)c2)C(=S)N1c1ccc(S(F)(F)(F)(F)F)cc1
active: VCaP Dose-dependent effect | DU-145 = Dose-dependent effect | CWR22R Dose-dependent effect | LNCaP Dose-dependent effect

CC1(C)C(=O)N(c2ccc(C#N)cc2C(F)(F)F)C(=S)N1c1ccc(S(F)(F)(F)(F)F)cc1
active: VCaP Dose-dependent effect | DU-145 = Dose-dependent effect | CWR22R Dose-dependent effect | LNCaP Dose-dependent effect

CC1(C)C(=O)N(c2ccc([N+](=O)[O-])cc2C(F)(F)F)C(=S)N1c1ccc(S(F)(F)(F)(F)F)cc1
active: VCaP Dose-dependent effect | DU-145 = Dose-dependent effect | CWR22R Dose-dependent effect | LNCaP Dose-dependent effect

CC1(C)C(=O)N(c2ccc(C#N)c(C(F)(F)F)c2)C(=S)N1c1cccc(S(F)(F)(F)(F)F)c1
active: VCaP Dose-dependent effect | DU-145 = Dose-dependent effect | CWR22R Dose-dependent effect | LNCaP Dose-dependent effect

CNC(=O)c1ccc(N2C(=S)N(c3cccc(S(F)(F)(F)(F)F)c3)C(=O)C2(C)C)cc1F
active: VCaP Dose-dependent effect | DU-145 = Dose-dependent effect | CWR22R Dose-dependent effect | LNCaP Dose-dependent effect

CC1(C)C(=O)N(c2cccc(S(F)(F)(F)(F)F)c2)C(=S)N1c1cccc(C(F)(F)F)c1
active: VCaP Dose-dependent effect | DU-145 = Dose-dependent effect | CWR22R Dose-dependent effect | LNCaP Dose-dependent effect

CC(O)(CSc1cc(C(F)(F)F)cc(C(F)(F)F)c1)C(=O)Nc1cccc(S(F)(F)(F)(F)F)c1 (configuration not stated)
active: VCaP Dose-dependent effect | DU-145 = Dose-dependent effect | CWR22R Dose-dependent effect | LNCaP Dose-dependent effect

CC1(C)C(=O)N(c2ccc(S(F)(F)(F)(F)F)cc2)C(=S)N1c1cccc(C(F)(F)F)c1
active: VCaP Dose-dependent effect | DU-145 = Dose-dependent effect | CWR22R Dose-dependent effect | LNCaP Dose-dependent effect

CC1(C)C(=O)N(c2ccc(S(F)(F)(F)(F)F)cc2)C(=S)N1c1ccc(C(F)(F)F)cc1
active: VCaP Dose-dependent effect | DU-145 = Dose-dependent effect | CWR22R Dose-dependent effect | LNCaP Dose-dependent effect

CNC(=O)c1ccc(N2C(=S)N(c3ccc(S(F)(F)(F)(F)F)cc3)C(=O)C2(C)C)cc1F
active: VCaP Dose-dependent effect | DU-145 = Dose-dependent effect | CWR22R Dose-dependent effect | LNCaP Dose-dependent effect

CC1(C)C(=O)N(c2ccc([N+](=O)[O-])cc2C(F)(F)F)C(=S)N1c1cccc(S(F)(F)(F)(F)F)c1
active: VCaP Dose-dependent effect | DU-145 = Dose-dependent effect | CWR22R Dose-dependent effect | LNCaP Dose-dependent effect

CC(O)(CSc1ccccc1C(F)(F)F)C(=O)Nc1ccc(S(F)(F)(F)(F)F)cc1 (racemic)
active: VCaP Dose-dependent effect | DU-145 = Dose-dependent effect | CWR22R Dose-dependent effect | LNCaP Dose-dependent effect

CC(O)(CSc1ccc(S(F)(F)(F)(F)F)cc1)C(=O)Nc1ccc([N+](=O)[O-])c(C(F)(F)F)c1 (racemic)
active: VCaP Dose-dependent effect | DU-145 = Dose-dependent effect | CWR22R Dose-dependent effect | LNCaP Dose-dependent effect

CC(O)(CSc1cccc(S(F)(F)(F)(F)F)c1)C(=O)Nc1ccc(C#N)cc1C(F)(F)F (racemic)
active: VCaP Dose-dependent effect | DU-145 = Dose-dependent effect | CWR22R Dose-dependent effect | LNCaP Dose-dependent effect

CC(O)(CSc1ccc(C(F)(F)F)cc1)C(=O)Nc1ccc(S(F)(F)(F)(F)F)cc1 (racemic)
active: VCaP Dose-dependent effect | DU-145 = Dose-dependent effect | CWR22R Dose-dependent effect | LNCaP Dose-dependent effect

CC(O)(CSc1ccccc1OC(F)(F)F)C(=O)Nc1ccc(S(F)(F)(F)(F)F)cc1 (racemic)
active: VCaP Dose-dependent effect | DU-145 = Dose-dependent effect | CWR22R Dose-dependent effect | LNCaP Dose-dependent effect

CC(O)(CSc1cccc(C(F)(F)F)c1)C(=O)Nc1ccc(S(F)(F)(F)(F)F)cc1 (racemic)
active: VCaP Dose-dependent effect | DU-145 = Dose-dependent effect | CWR22R Dose-dependent effect | LNCaP Dose-dependent effect

CC(O)(CSc1cccc(S(F)(F)(F)(F)F)c1)C(=O)Nc1ccc([N+](=O)[O-])c(C(F)(F)F)c1 (racemic)
active: VCaP Dose-dependent effect | DU-145 = Dose-dependent effect | CWR22R Dose-dependent effect | LNCaP Dose-dependent effect

CC(O)(CSc1ccc(F)cc1)C(=O)Nc1ccc(S(F)(F)(F)(F)F)cc1 (racemic)
active: VCaP Dose-dependent effect | DU-145 = Dose-dependent effect | CWR22R Dose-dependent effect | LNCaP Dose-dependent effect

CC(O)(CSc1ccc(C(F)(F)F)cn1)C(=O)Nc1ccc(S(F)(F)(F)(F)F)cc1 (racemic)
active: VCaP Dose-dependent effect | DU-145 = Dose-dependent effect | CWR22R Dose-dependent effect | LNCaP Dose-dependent effect

CC(O)(CSc1ccc(S(F)(F)(F)(F)F)cc1)C(=O)Nc1ccc([N+](=O)[O-])cc1C(F)(F)F (racemic)
active: VCaP Dose-dependent effect | DU-145 = Dose-dependent effect | CWR22R Dose-dependent effect | LNCaP Dose-dependent effect

CC(O)(CSc1ccc(S(F)(F)(F)(F)F)cc1)C(=O)Nc1ccc(C#N)cc1C(F)(F)F (racemic)
active: VCaP Dose-dependent effect | DU-145 = Dose-dependent effect | CWR22R Dose-dependent effect | LNCaP Dose-dependent effect

CC(O)(CSc1cccc(OC(F)(F)F)c1)C(=O)Nc1ccc(S(F)(F)(F)(F)F)cc1 (racemic)
active: VCaP Dose-dependent effect | DU-145 = Dose-dependent effect | CWR22R Dose-dependent effect | LNCaP Dose-dependent effect

CC(O)(CSc1cccc(S(F)(F)(F)(F)F)c1)C(=O)Nc1ccc([N+](=O)[O-])cc1C(F)(F)F (racemic)
active: VCaP Dose-dependent effect | DU-145 = Dose-dependent effect | CWR22R Dose-dependent effect | LNCaP Dose-dependent effect

CC(O)(CSc1cccc(S(F)(F)(F)(F)F)c1)C(=O)Nc1ccc(C#N)c(C(F)(F)F)c1 (racemic)
active: VCaP Dose-dependent effect | DU-145 = Dose-dependent effect | CWR22R Dose-dependent effect | LNCaP Dose-dependent effect

CC(O)(CSc1ccc(OC(F)(F)F)cc1)C(=O)Nc1ccc(S(F)(F)(F)(F)F)cc1 (racemic)
active: VCaP Dose-dependent effect | DU-145 = Dose-dependent effect | CWR22R Dose-dependent effect | LNCaP Dose-dependent effect

CC(O)(CSc1cccc(S(F)(F)(F)(F)F)c1)C(=O)Nc1ccc(S(F)(F)(F)(F)F)cc1 (racemic)
active: VCaP Dose-dependent effect | DU-145 = Dose-dependent effect | CWR22R Dose-dependent effect | LNCaP Dose-dependent effect

CC(O)(CSc1ccc(S(F)(F)(F)(F)F)cc1)C(=O)Nc1ccc(S(F)(F)(F)(F)F)cc1 (racemic)
active: VCaP Dose-dependent effect | DU-145 = Dose-dependent effect | CWR22R Dose-dependent effect | LNCaP Dose-dependent effect

CC(O)(CSc1cc(C(F)(F)F)cc(C(F)(F)F)c1)C(=O)Nc1ccc(S(F)(F)(F)(F)F)cc1 (racemic)
active: VCaP Dose-dependent effect | DU-145 = Dose-dependent effect | CWR22R Dose-dependent effect | LNCaP Dose-dependent effect

CC(O)(CSc1ccc(S(F)(F)(F)(F)F)cc1)C(=O)Nc1ccc(C#N)c(C(F)(F)F)c1 (racemic)
active: VCaP Dose-dependent effect | DU-145 = Dose-dependent effect | CWR22R Dose-dependent effect | LNCaP Dose-dependent effect
